From US9573956B2, “Compounds as dual inhibitors of phosphodiesterases and histone deacetylases” (FUNDACIÓN PARA LA INVESTIGACIÓN MÉDICA APLICADA, priority 2013, dated 2017) come the findings set out here.

Chains of the proteins cited; added tags and fusions are not shown. Residues count along the entry.
UniProt Q13547, whole entry: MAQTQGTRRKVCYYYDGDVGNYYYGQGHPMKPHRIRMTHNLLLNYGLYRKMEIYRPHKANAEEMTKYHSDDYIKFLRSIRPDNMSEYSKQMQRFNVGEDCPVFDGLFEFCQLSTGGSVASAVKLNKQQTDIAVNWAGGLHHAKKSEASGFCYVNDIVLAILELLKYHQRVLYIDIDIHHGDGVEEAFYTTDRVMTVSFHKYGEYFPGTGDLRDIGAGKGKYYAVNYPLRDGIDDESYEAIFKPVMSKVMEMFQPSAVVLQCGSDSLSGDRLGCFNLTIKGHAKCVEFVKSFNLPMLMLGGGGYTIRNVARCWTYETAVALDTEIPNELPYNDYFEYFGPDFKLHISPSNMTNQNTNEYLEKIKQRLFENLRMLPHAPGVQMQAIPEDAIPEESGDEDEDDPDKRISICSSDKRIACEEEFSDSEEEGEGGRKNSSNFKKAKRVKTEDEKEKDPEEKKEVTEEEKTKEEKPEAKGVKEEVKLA
UniProt Q92769, whole entry: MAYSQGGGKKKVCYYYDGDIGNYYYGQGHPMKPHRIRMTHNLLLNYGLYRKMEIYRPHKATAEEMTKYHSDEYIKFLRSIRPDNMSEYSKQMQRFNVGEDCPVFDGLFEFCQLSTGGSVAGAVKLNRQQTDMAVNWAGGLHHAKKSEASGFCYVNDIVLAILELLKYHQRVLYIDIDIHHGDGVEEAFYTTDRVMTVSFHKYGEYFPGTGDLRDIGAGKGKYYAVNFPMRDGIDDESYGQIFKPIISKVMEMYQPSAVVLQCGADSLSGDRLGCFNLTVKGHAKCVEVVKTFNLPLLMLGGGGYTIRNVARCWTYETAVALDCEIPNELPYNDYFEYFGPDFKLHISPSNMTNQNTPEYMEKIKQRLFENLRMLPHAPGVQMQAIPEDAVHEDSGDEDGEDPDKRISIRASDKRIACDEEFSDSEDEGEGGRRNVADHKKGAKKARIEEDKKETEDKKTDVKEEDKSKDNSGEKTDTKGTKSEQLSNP
UniProt Q9UBN7, whole entry: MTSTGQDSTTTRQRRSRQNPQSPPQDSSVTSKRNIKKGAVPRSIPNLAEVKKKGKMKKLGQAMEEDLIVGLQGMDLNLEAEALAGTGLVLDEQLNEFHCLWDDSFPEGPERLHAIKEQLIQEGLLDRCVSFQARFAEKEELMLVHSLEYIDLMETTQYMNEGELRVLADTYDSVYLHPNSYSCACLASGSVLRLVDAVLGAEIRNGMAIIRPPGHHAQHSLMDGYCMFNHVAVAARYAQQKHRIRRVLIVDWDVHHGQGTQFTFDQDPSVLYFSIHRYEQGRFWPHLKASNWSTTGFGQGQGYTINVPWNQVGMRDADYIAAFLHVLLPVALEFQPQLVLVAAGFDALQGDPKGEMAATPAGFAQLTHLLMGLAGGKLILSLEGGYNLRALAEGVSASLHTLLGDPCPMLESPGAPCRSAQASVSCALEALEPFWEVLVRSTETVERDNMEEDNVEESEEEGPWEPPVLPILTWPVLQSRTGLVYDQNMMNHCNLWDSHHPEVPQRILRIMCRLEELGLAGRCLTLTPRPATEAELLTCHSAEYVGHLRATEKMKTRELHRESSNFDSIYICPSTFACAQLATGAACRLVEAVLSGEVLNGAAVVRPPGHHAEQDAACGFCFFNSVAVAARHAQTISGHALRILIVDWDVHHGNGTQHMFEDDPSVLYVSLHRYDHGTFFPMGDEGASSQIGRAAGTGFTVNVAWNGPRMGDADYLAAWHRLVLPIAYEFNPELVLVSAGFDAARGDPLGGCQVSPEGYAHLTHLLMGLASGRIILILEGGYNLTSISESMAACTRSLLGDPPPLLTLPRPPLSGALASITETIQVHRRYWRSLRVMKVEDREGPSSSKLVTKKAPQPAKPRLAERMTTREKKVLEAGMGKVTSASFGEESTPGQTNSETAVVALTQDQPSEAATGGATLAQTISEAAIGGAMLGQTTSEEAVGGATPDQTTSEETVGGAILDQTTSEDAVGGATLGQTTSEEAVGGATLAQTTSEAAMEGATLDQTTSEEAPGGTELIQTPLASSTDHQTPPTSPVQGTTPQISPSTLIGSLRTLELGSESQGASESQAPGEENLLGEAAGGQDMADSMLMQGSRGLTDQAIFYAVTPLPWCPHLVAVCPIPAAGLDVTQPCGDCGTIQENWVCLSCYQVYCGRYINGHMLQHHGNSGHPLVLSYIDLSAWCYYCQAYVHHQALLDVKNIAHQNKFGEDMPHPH
UniProt O76083, 1-533 isoform 2: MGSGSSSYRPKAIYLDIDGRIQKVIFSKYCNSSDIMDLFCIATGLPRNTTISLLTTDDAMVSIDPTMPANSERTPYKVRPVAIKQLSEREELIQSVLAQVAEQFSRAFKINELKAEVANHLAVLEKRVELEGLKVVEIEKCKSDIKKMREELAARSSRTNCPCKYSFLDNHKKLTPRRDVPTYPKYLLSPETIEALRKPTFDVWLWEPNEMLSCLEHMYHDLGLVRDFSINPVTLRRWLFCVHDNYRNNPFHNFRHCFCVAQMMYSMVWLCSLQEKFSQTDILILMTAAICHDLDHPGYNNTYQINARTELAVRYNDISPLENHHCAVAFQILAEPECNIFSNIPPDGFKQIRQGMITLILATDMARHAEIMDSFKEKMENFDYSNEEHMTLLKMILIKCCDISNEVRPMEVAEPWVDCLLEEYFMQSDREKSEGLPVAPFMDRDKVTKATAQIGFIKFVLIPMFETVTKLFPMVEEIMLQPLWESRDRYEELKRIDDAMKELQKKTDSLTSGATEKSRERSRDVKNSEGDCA

Read-outs that look alike come from different tables or passages of the source. Where only a bound is given, the exact number is not on record here.

Holding throughout (type): biochemical
The target in one test is PDE5A (Homo sapiens, UniProt O76074). The test can be described thus: PDE enzyme activity assay (HTRF cGMP), PDE5A. The following applies: read-out: PDE5A1 inhibition (IC50); recombinant enzyme. A general note: Time-resolved FRET reads energy transfer from a long-lived donor to a nearby acceptor.
In another test the target is HDAC1 (Homo sapiens, UniProt Q13547). Briefly: HDAC enzyme activity assay (fluorogenic substrate), HDAC1. The following applies: read-out: HDAC1 inhibition (IC50), recombinant enzyme.
The target of a further test is HDAC2 (Homo sapiens, UniProt Q92769). The test can be described thus: HDAC enzyme activity assay (fluorogenic substrate), HDAC2. The following applies: read-out: HDAC2 inhibition (IC50), recombinant enzyme.
A further test has as its target HDAC6 (Homo sapiens, UniProt Q9UBN7). The test can be described thus: HDAC enzyme activity assay (fluorogenic substrate), HDAC6. The following applies: read-out: HDAC6 inhibition (IC50), recombinant enzyme.
The target in another test is PDE9A isoform b (Homo sapiens, UniProt O76083). The test can be described thus: PDE enzyme activity assay (HTRF cGMP), PDE9A. Conditions: read-out: PDE9A inhibition (IC50); recombinant enzyme; tested form: trans racemate at the pyrrolidine.
The mark [1] stands for this setting: tested form: trans racemate at the pyrrolidine.

As for `CCCc1nn(C)c2c(=O)[nH]c(-c3cc(NC4CCC(C(=O)NO)CC4)ccc3OCC)nc12` (centres unmarked), the IC50 is 10 to 1000 nM on PDE5A, 1 to 10 µM at HDAC1, more than 10 µM on HDAC2 and more than 10 µM on HDAC6.
With `CC1CN(C2CC(C(=O)NO)C2)CC1c1nc2c(cnn2C2CCOCC2)c(=O)[nH]1` (centres unmarked), the IC50 is 10 to 1000 nM on PDE9A isoform b, 1 to 10 µM on HDAC1 (setting [1]), more than 10 µM at HDAC2 (setting [1]) and 1 to 10 µM on HDAC6 (setting [1]).

As a reminder, the IC50 is the concentration that inhibits the measured activity by half.
